# Assays:
# By UniProt entry, the sequences of proteins in these tests, tags left out.
# UniProt P14902, whole entry: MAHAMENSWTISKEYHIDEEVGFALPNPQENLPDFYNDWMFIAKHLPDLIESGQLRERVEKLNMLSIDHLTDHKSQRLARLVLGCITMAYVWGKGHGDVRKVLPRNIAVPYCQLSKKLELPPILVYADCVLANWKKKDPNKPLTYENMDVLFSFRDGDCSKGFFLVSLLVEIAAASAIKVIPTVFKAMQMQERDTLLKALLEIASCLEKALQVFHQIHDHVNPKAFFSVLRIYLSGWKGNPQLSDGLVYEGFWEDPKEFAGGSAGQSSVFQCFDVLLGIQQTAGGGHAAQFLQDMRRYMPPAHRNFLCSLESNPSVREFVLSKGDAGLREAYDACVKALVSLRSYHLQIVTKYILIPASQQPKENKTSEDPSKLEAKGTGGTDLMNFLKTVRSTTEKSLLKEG
# IDO1 = IDO1 (Homo sapiens, UniProt P14902); assay: Cellular IDO1 activity assay in IFN-γ induced MDA-MB-231 cells; assay type: cell-based; set-up: induce the expression of the native IDO1 enzyme from its mRNA in the MDA-MB-231 cells; endogenous in cells; host or cells: MDA-MB-231 cells induced with human IFN-γ (50 ng/mL)
# Description: The cellular enzyme activity assay was performed according to the reported procedure with minor modifications[19],[27]–[30],[33],[54]. Briefly, MDA-MB-231 breast cancer cells were selected for this assay because of the presence of IDO1 mRNA in this cell line. First, cells were grown in DMEM/F12 complete media overnight. Then different concentration of human interferon-gamma (IFN-γ) (from 5–1000 ng/mL) was added to it and incubated for 48 hours. This treatment is reported to allow over-expression of IDO1 enzyme in MDA-MB-231 cells. […] Sterile cell-culture grade PBS was used to wash the cells by centrifugation technique. Then, the pellet was lysed in 10 mM HEPES buffer by passing through a sterile syringe. The lysate was used for standard IDO1 assay as mentioned earlier. The relative amount of N-formylkynurenine generated in the presence of the different concentration of IFN-γ was used to optimize the required concentration of IFN-γ for the IDO1 inhibition assay. […] Cells stimulated with IFN-γ alone were used as negative control, while cells stimulated with L-Trp without compound served as positive control. The cells were washed with sterile cell culture grade PBS and lysed in 10 mM HEPES buffer by sterile syringe. The lysate was used for standard IDO1 assay, as mentioned earlier, and the extent of IDO1 enzyme inhibition was determined for the selected compounds.
# [1] = molecular target: T1, purified human IDO1 enzyme (Homo sapiens, UniProt P14902); assay: IDO1 inhibition assay by the spectrometric method (pDMAB); assay type: biochemical; conditions: spectrophotometric method
# T1 construct: made in house; host or cells: Escherichia coli M15 (pQE30 vector with pREP4 plasmid)
# Description: Both IDO1 and TDO inhibition assays were performed according to the reported procedures[26]–[30],[50],[51]. […] In the assay system, the minimum and maximum amount of DMSO was 0.02% and 2%, respectively. […] The concentration of the inhibitors was varied from 100 µM to 32 nM by serial dilution technique. Then, the reaction was quenched with 100 µL of 30% (w/v) trichloroacetic acid and was incubated for further 15 minutes at 65 °C. After that, 2% (w/v) pDMAB was used to quantify the amount of kynurenine formation. The absorbance of the reaction mixture was recorded by UV-Vis spectrophotometer at 480 nm.
structure (smiles),measurement,setting,value
"Oc1ccc(Cl)cc1-c1c[nH]nn1 [MMG-0358, 4-chloro-2-(1H-1,2,3-triazol-5-yl)phenol]",EC50,IDO1,120 nM
same,IC50,[1],317 nM

# Reference: paper PMC6895048, “4,5-Disubstituted 1,2,3-triazoles: Effective Inhibition of Indoleamine 2,3-Dioxygenase 1 Enzyme Regulates T cell Activity and Mitigates Tumor Growth” (Scientific Reports, 2019)
